Measured values as given in publication PMC6598531, “Appraisal of anti-protozoan activity of nitroaromatic benzenesulfonamides inhibiting carbonic anhydrases from Trypanosoma cruzi and Leishmania donovani” (Journal of Enzyme Inhibition and Medicinal Chemistry, 2019).

Chains of the proteins cited; added tags and fusions are not shown. Lines headed by an entry give the natural chain unless they say otherwise; changes in a name come on top.
UniProt P00915: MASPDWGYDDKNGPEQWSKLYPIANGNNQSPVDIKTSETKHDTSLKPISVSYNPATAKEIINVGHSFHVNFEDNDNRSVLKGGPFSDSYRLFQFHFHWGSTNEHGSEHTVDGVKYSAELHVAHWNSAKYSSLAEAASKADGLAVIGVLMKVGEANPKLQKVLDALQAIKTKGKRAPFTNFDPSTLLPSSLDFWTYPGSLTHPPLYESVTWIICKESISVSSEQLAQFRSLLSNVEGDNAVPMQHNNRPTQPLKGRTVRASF

Key:
hCA I = hCA I (Homo sapiens, UniProt P00915); assay: stopped flow CO2 hydrase assay, hCA I inhibition; settings: read-out: KI hCA I, mean from three assays
hCA II = hCA II (Homo sapiens, UniProt P00918); assay: stopped flow CO2 hydrase assay, hCA II inhibition; settings: read-out: KI hCA II, mean from three assays

`NS(=O)(=O)c1cc([N+](=O)[O-])c(O)c([N+](=O)[O-])c1` was tested. Which Ki (hCA I) did it give?
Its Ki is 4350 nM.

What about the Ki (hCA II) of the same molecule?
The Ki was 180 nM.
